From PubChem BioAssay AID651687 (Broad Institute, 2012)
This is a selection; strong and weak results do not stand in their true shares. Some results for these compounds are left out of this collection, so the calls shown say nothing about other tests. Activity calls are given as the source filed them.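 The calls were made as follows: active = every replicate shows inhibition of at least 40%; inconclusive = mean inhibition at least 40% but some replicate below; inactive = the rest.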

Assay: compounds lowering acetylated PGC1a in cells – cell-based, U2OS, AlphaScreen, inhibitor mode, primary screen (AID 651687);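 also: 0% = neutral control wells and 100% = positive control wells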
Conditions: U2OS PGC1a acetylation, AlphaScreen anti-acetyl-lysine; at 15.6 µM; stronger effect = higher value; with virally co-expressed GCN5 acetyltransferase
For `O=C(OC1CN2CCC1CC2)C(CO)(c1ccccc1)c1ccccc1` (configuration not stated), the inhibition was inactive: -9.06%.
In the case of `C=C(C)C#CC(O)(C(=O)OC1CCN(C)CC1)c1ccccc1` (configuration not stated), the inhibition is reported as inactive: -8.88%.
With `COc1ccc(Br)c(C(=O)NCC2(N3CCCCC3)CCCCC2)c1` the inhibition was inactive: 6.44%.
In the case of `O=C(OCCN1CCCC1)C(O)(c1ccccc1)c1ccccc1`, the inhibition is reported as inactive: -1.12%.
For `CC(C)Oc1ccc(C(=O)NCC2(N(C)C)CCCCC2)cc1`, the inhibition was inactive: 1.03%.
In the case of `CN(C)c1cccc(C(=O)NCC2(N(C)C)CCCCC2)c1`, the inhibition is reported as inactive: 3.19%.
With `CN(C)C1(CNC(=O)c2ccc(Br)cc2)CCCCC1` the inhibition was inactive: 1.06%.
In the case of `COc1ccc(Cl)cc1C(=O)NCC1(N(C)C)CCCCC1`, the inhibition is reported as inactive: 34.1%.
With `COc1cccc(C(=O)NCC2(N3CCCCC3)CCCCC2)c1` the inhibition was inactive: -1.83%.
For `O=C(NCC1(N2CCCCC2)CCCCC1)c1cccc(Cl)c1`, the inhibition was inactive: 2.27%.
With `CN(C)c1ccc(C(=O)NCC2(N(C)C)CCCCC2)cc1` the inhibition was inactive: 12.8%.
With `C=CCN1CCN(CCOC(=O)C(O)(c2ccccc2)c2ccccc2)CC1` the inhibition was inactive: 2.98%.
In the case of `COc1ccc(C(=O)NCC2(N(C)C)CCCCC2)cc1`, the inhibition is reported as inactive: 4.3%.
For `O=C(NCC1(N2CCCCC2)CCCCC1)c1cccc(Br)c1`, the inhibition was inactive: -17.6%.
For `CN1[C@@H]2CC[C@H]1CC(OC(=O)C(O)(c1ccccc1)c1ccccc1)C2` (some centres not stated), the inhibition was inactive: 9.88%.
In the case of `CCN(CC)CC(C)C(C)OC(=O)C(O)(c1ccccc1)c1ccccc1` (configuration not stated), the inhibition is reported as inactive: 10.1%.
For `CC(C)N1C(=O)CC2(CCN(CCOC(=O)C(O)(c3ccccc3)c3ccccc3)CC2)C1=O`, the inhibition was inactive: 3.91%.
